The values that follow come from patent publication US9951043B2, “Therapeutic compounds” (Gilead Sciences, Inc., priority 2013, dated 2018).

In this series the test system is uninfected MT-4 cells. Nature of the series: Test B: Cytotoxicity Assay. Type of series: cell-based. As to conditions: same protocol as Test A, 5 days. How it is done:
MT-4 cells were next mixed with HIV-IIIb at an m.o.i of 0.003 for 1 hour, after which time 35 μL of virus/cell mixture (2000 cells) was immediately added to each well containing 40 μL of diluted compound. The plates were then incubated at 37° C. for 5 days. After 5 days of incubation, 25 μl of 2× concentrated CellTiter-Glo™ Reagent (catalog #G7571, Promega Biosciences, Inc., Madison, Wis.) was added to each well containing MT-4 cells. Cell lysis was carried out by incubating at room temperature for 10 min and then chemiluminescence was read.
Test B: Cytotoxicity Assay
Compound cytotoxicity and the corresponding CC50 values was determined using the same protocol as described in the antiviral assay (Test A) except that uninfected cells were used.
The term CC50 denotes the concentration that lowers cell viability or growth by half. Low values mean greater toxicity to the cells, high ones lower toxicity to the cells. For the compound `Cn1nc(NS(C)(=O)=O)c2c(Cl)ccc(-c3ccc(C#CC(C)(C)O)nc3[C@H](Cc3cc(F)cc(F)c3)NC(=O)Cn3nc(C(F)F)c4c3C(F)(F)[C@@H]3C[C@H]43)c21` [Compound 19G, (S)—N-(1-(3-(4-chloro-1-methyl-3-(methylsulfonamido)-1H-indazol-7-yl)-6-(3-hydroxy-3-methylbut-1-ynyl)pyridin-2-yl)-2-(3,5-difluorophenyl)ethyl)-2-((3bS,4aR)-5,5-difluoro-3-(difluoromethyl)-3b,4,4a,5-tetrahydro-1H-cyclopropa[3,4]cyclopenta[1,2-c]pyrazol-1-yl)acetamide], the CC50 worked out at 19.6 µM.
`Cn1nc(NS(C)(=O)=O)c2c(F)ccc(-c3ccc(C#CC(C)(C)O)nc3[C@H](Cc3cc(F)cc(F)c3)NC(=O)Cn3nc(C(F)F)c4c3C(F)(F)[C@@H]3C[C@H]43)c21` [Compound 75, 2-((3bS,4aR)-3-(difluoromethyl)-5,5-difluoro-3b,4,4a,5-tetrahydro-1H-cyclopropa[3,4]cyclopenta[1,2-c]pyrazol-1-yl)-N—((S)-2-(3,5-difluorophenyl)-1-(3-(4-fluoro-1-methyl-3-(methylsulfonamido)-1H-indazol-7-yl)-6-(3-hydroxy-3-methylbut-1-yn-1-yl)pyridin-2-yl)ethyl)acetamide]: the CC50 was over 40.3 µM.
The compound `Cn1nc(NS(C)(=O)=O)c2c(Cl)ccc(-c3ccc(C#CC(C)(C)O)nc3[C@H](Cc3cc(F)cc(F)c3)NC(=O)Cn3nc(C(F)(F)F)c4c3C(F)(F)[C@@H]3C[C@H]43)c21` [Compound 78, N—((S)-1-(3-(4-chloro-1-methyl-3-(methylsulfonamido)-1H-indazol-7-yl)-6-(3-hydroxy-3-methylbut-1-yn-1-yl)pyridin-2-yl)-2-(3,5-difluorophenyl)ethyl)-2-((3bS,4aR)-5,5-difluoro-3-(trifluoromethyl)-3b,4,4a,5-tetrahydro-1H-cyclopropa[3,4]cyclopenta[1,2-c]pyrazol-1-yl)acetamide] yielded a CC50 of 14.4 µM.
As for `Cc1ccc(-c2ccc(C#CC(C)(C)O)nc2[C@H](Cc2cc(F)cc(F)c2)NC(=O)Cn2nc(C(F)F)c3c2C(F)(F)[C@@H]2C[C@H]32)c2c1c(NS(C)(=O)=O)nn2C` [Compound 112D, 2-((3bS,4aR)-3-(difluoromethyl)-5,5-difluoro-3b,4,4a,5-tetrahydro-1H-cyclopropa[3,4]cyclopenta[1,2-c]pyrazol-1-yl)-N—((S)-2-(3,5-difluorophenyl)-1-(3-(1,4-dimethyl-3-(methylsulfonamido)-1H-indazol-7-yl)-6-(3-hydroxy-3-methylbut-1-yn-1-yl)pyridin-2-yl)ethyl)acetamide], the CC50 was 13.9 µM.
Take `COc1ccc(-c2ccc(C#CC(C)(C)O)nc2[C@H](Cc2cc(F)cc(F)c2)NC(=O)Cn2nc(C(F)F)c3c2C(F)(F)[C@@H]2C[C@H]32)c2c1c(NS(C)(=O)=O)nn2C` [Compound 141D, 2-((3bS,4aR)-3-(difluoromethyl)-5,5-difluoro-3b,4,4a,5-tetrahydro-1H-cyclopropa[3,4]cyclopenta[1,2-c]pyrazol-1-yl)-N—((S)-2-(3,5-difluorophenyl)-1-(6-(3-hydroxy-3-methylbut-1-yn-1-yl)-3-(4-methoxy-1-methyl-3-(methylsulfonamido)-1H-indazol-7-yl)pyridin-2-yl)ethyl)acetamide]: the midpoint of cytotoxicity, the CC50, lay at 19.8 µM.
Compound `Cn1nc(NS(C)(=O)=O)c2c(Cl)ccc(-c3ccc(C#CC(C)(O)C(F)F)nc3[C@H](Cc3cc(F)cc(F)c3)NC(=O)Cn3nc(C(F)F)c4c3C(F)(F)[C@@H]3C[C@H]43)c21` (stereo partly drawn) [Compound 169, N-((1S)-1-(3-(4-chloro-1-methyl-3-(methylsulfonamido)-1H-indazol-7-yl)-6-(4,4-difluoro-3-hydroxy-3-methylbut-1-yn-1-yl)pyridin-2-yl)-2-(3,5-difluorophenyl)ethyl)-2-((3bS,4aR)-3-(difluoromethyl)-5,5-difluoro-3b,4,4a,5-tetrahydro-1H-cyclopropa[3,4]cyclopenta[1,2-c]pyrazol-1-yl)acetamide] showed a CC50 of 12.4 µM.
